Earlier results as cited in US20200352950A1, “Novel method of treating dystonia” (KOREA ADVANCED INSTITUTE OF SCIENCE AND TECHNOLOGY, priority 2017, published 2020).

Amino acid sequences for entries named in this document (tags omitted).
UniProt P28223, whole entry: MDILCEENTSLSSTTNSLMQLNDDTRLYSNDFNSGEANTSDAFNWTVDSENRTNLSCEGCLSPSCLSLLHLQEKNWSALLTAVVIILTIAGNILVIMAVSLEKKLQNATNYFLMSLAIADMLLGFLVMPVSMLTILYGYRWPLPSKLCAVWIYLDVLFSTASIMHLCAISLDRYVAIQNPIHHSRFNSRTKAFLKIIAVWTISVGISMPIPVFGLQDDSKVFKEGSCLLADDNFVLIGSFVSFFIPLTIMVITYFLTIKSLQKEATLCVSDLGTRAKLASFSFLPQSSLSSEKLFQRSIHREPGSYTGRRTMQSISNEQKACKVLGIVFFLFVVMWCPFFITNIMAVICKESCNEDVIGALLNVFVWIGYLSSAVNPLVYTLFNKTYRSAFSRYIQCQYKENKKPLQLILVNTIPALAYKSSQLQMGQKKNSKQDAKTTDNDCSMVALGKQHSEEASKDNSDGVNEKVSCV

Target: 5-HT2A receptor (Homo sapiens, UniProt P28223)
Settings: cited from earlier work

For `O=S1(=O)N(CCN2CC=C(c3c[nH]c4cc(F)ccc34)CC2)c2cccc3c2N1CCC3` [LY-367265], the Ki is given as 0.81 nM.
